This experiment deals with T1, Aurora kinase A (Homo sapiens) (UniProt O14965).
T1 sequence (whole entry): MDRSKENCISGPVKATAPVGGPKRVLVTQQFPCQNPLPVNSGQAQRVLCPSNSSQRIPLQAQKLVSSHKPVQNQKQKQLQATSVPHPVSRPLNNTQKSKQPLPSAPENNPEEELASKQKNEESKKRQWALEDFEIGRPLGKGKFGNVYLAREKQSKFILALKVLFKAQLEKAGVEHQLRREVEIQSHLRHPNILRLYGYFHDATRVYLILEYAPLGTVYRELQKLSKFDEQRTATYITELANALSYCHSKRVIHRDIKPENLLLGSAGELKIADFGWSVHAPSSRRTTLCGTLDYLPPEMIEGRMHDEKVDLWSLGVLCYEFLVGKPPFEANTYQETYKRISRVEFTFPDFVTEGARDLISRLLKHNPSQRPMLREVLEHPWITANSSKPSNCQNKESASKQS
Kind of experiment: Inhibition of AURKA (unknown origin) at 1 uM relative to control.

By inhibition is commonly meant the drop in the measured response relative to a control, in per cent. High values mean strong suppression, low ones little suppression. `CC(C)N1c2cc(Nc3nccc(-c4ccccc4)n3)ccc2N(C)C(=O)C1C` (stereo unspecified) had an inhibition of 67.4%.

(Values after ChEMBL document CHEMBL6096727, “Structure-Based Rational Design and Evaluation of BET-Aurora Kinase Dual-Inhibitors for Treatment of Cancers” (J Med Chem, 2025).)
